Common to all, as to test: SPR
Assay [1] addresses FLAG-tagged human vascular endothelial growth factor-A (FLAG-hVEGF-A) (human, UniProt P15692 1-395).
In assay [2] the target is T1, FLAG-tagged human tumor necrosis factor α (FLAG-hTNFα) (human, UniProt P01375 1-233).
Assay [3] has as its target T1, FLAG-tagged human tumor necrosis factor …. The source holds these as a separate data set.

Chains of the proteins cited; added tags and fusions are not shown. A line that says so, or that is headed by a name, gives the form on record, which may keep a tag or linker.
UniProt P15692, other isoform, or with tags, fused parts or gaps: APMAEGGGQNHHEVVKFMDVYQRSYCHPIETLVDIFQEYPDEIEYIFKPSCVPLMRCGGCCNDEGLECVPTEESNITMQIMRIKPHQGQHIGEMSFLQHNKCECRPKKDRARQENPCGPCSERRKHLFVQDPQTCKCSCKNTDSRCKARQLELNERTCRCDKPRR
UniProt P01375, whole entry: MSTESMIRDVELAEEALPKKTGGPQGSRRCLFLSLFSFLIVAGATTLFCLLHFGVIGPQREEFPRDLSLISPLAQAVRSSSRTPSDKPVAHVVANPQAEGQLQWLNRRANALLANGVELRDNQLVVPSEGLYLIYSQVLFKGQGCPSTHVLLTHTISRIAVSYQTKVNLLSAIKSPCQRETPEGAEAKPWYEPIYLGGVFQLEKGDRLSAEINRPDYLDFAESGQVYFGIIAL

Numbering of substitutions follows the chain as printed.

B1: anti-hVEGF-A clone C018AM-20 (affinity-matured from C018) (antibody, V domains shown)
VH: EVQLLESGGGLVQPGGSLRLSCAASGFTFSSYAMSWVRQAPGKGLEWVSSISGSGGNTYYADSVKGRFTISRDNSKNTLYLQMNSLRAEDTAVYYCAKDTERIQLWLGFDYWGQGTPVTVSS
VL: DIQMTQSPSSLSASVGDRVTITCRASESISSYLAWYQQKPGKAPKLLIYAPSNLESGVPSRFSGSGSGTDFTLTINSLQPEDFATYYCQQYYSTPLTFGQGTKLEIK
In assay [1], B1 displayed a koff of 0.00147 s⁻¹.

B2: anti-hVEGF-A clone C018 (antibody, V domains shown)
VH: not shown
VL: B1 VL
For B2, the koff in assay [1] amounted to 31.5 s⁻¹.

B3: anti-human TNFα clone #314 (antibody, V domains shown)
VH: not shown
VL: B1 VL with E27Q, S31D, A34H, A50D, P51A
In the case of B3, the off-rate (koff) in assay [2] was 0.00467 s⁻¹. In assay [3], the Kd was 4.4 nM.

B4: anti-human TNFα clone #314AM-043-01 (after two rounds of affinity maturation of #314) (antibody, V domains shown)
VH: EVQLLESGGGLVQPGGSLRLSCAASGFTFSSYAMSWVRQAPGKGLEWVSAISSSSGGSTYYADSVKGRFTISRDNSKNTLYLQMNSLRAEDTAVYYCARSIVGATLDFDYWGQGTTVTVSS
VL: B1 VL with E27Q, S31D, A34H, A50D, P51A
Take B4: the koff in assay [2] was determined as 0.000683 s⁻¹. In assay [3], this molecule returned a Kd of 0.358 nM.

By koff is commonly meant the first-order rate constant of dissociation. A high value points to fast dissociation. One may read the Kd as the free concentration of one partner at which half of the binding sites on the other are occupied at equilibrium, for simple one-to-one binding. High values mean a looser complex, low ones a tighter complex.

The values are drawn from paper PMC8166883 (2020).
